Compound activity deposited in PubChem BioAssay by National Center for Advancing Translational Sciences (NCATS).
D3 antag = qHTS of D3 Dopamine Receptor Antagonist: qHTS; D(3) dopamine receptor (Homo sapiens), P35462; AID 652054, 2013; D3R cells, DiscoveRx beta-arrestin luminescence, antagonist mode; active compounds read low; max response, negative = inhibition, %; 2.5% of 360,000 active; in the data active = max response below about -50%; inconclusive = no clear call, values can overlap the other calls; also: % is scaled to controls: 0 for no effect and ±100 for the full control effect
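Cells plated overnight at 1500 cells/well, then exposed to library compounds with dopamine controls for 90 minutes at 37 degrees C. DiscoveRx reagent added for 30–60 minutes at room temperature; luminescence read, quantitative HTS format.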
DRD3 agonist = qHTS of D3 Dopamine Receptor Agonist: qHTS | D(3) dopamine receptor (Homo sapiens), P35462 | D3R DiscoveRx beta-arrestin cells, luminescence, 90 min | max activation, % | 0.58% of 410,000 active | AID 652048, 2013; in the data active = max activation above about 30%; also: 0% is about no effect
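Agonist-mode cell screen: cells plated at 1500/well and incubated overnight at 37 °C, then exposed to library compounds for 90 min at 37 °C. Detection reagent was added for 30–60 min at room temperature, and luminescence was read.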
PTAP TSG101 blk = qHTS Assay for Iinhibitors of HIV-1 Budding by Blocking the Interaction of PTAP/TSG101 | Tumor susceptibility gene 101 protein (Homo sapiens), Q99816 | Fluorescence polarization, FITC-PTAP peptide / Tsg101 binding | Potency, µM (titrated, usually from 115 µM), for the others: at the highest dose activity change, negative = inhibition, hits mostly inhibitors | 340,000 tested, under 10 active; active = well fitted inhibition curve with a large enough effect in the main read-out, with a control signal flat, not every such curve was filed as active; inconclusive = small, poorly fitted or top-dose-only effect, or effect the other way, or a change in a side signal; inactive = no such curve, though single readings can be large or run the other way; also: potency is read from the fitted curve at half-maximal effect; % of control where 0% means no effect
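Compounds were pin-transferred onto Tsg101 binding domain (10 uM final) in HEPES pH 7.5 buffer, then FITC-PTAP peptide was added at 50 nM final. After 20 min at RT, polarization reported peptide displacement across a qHTS concentration series.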
Rango release inh = qHTS Assay for Inhibitors of RanGTP induced Rango (Ran-regulated importin-beta cargo) - Importin beta complex dissociation. 0.071% of 340,000 active. Biochemical FRET Rango-importin beta, RanGTP-induced dissociation. Snurportin-1 (Homo sapiens) + GTP-binding nuclear protein Ran (Homo sapiens) + Importin …. AID 540253, 2011. Potency, µM (top dose mostly 46.1 µM), without a hit: at the highest dose activity change, negative = inhibition; also: potency is read from the fitted curve at half-maximal effect; % of control where 0% means no effect; nearly all actives have a fitted effect of over 45% in size
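Rango/importin beta premix (0.1/0.25 uM final), PBS + 1 mM DTT + 0.02% Tween-20 + 0.1% BSA; cpd 5 min RT; FRET pre-read; + RanGTP-RCC1 (0.6 uM Ran, 2 mM GTP, 0.2 uM RCC1); 45 min RT; FRET post-read, ex 430, em 486/530 nm.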
Rango complex inh = qHTS Assay for Inhibitors of Rango (Ran-regulated importin-beta cargo) - Importin beta complex formation; Importin subunit beta-1 (Homo sapiens), Q14974; Rango CFP/YFP FRET sensor + importin beta, 45 min; Potency, µM (top dose mostly 92.2 µM), without a hit: at the top dose inhibition of complex formation; 0.031% of 340,000 active; AID 540263, 2011;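 also: potency is read from the fitted curve at half-maximal effect; 0% = DMSO wells and 100% = buffer wells lacking importin beta; nearly all actives have a fitted effect of over 15% in size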
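FRET biosensor (snurportin 1 IBB flanked by EYFP and cerulean), 50 nM, with compound 5 min, then 0.125 microM importin beta in PBS, 1 mM DTT, 0.02% Tween-20, 0.1% BSA. CFP/YFP ratio read after 45 min at room temperature; pre-read flags interference.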
MmCpn inh = Inhibitors of TCP-1 ring complex (TRiC) of Methanococcus maripaludis (MmCpn): qHTS; Potency, µM (highest dose often 76.9 µM), for inactives: at the highest dose activity, negative = inhibition, most hits filed as inhibitors; purified Mm-Cpn ATPase, ADP Transcreener TR-FRET; AID 504842, 2011; 0.031% of 330,000 active; active = well fitted inhibition curve with a large enough effect; inconclusive = small, poorly fitted or top-dose-only effect; also: potency is read from the fitted curve at half-maximal effect; % is scaled to controls: 0 for no effect and ±100 for the full control effect; nearly all actives have a fitted effect of over 80% in size
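Purified archaeal chaperonin (25 nM final) was preincubated with compound for 10 min at 37°C, then ATP (10 uM final) was added for 30 min at 37°C in Tris pH 7.4/KCl/MgCl2/DTT buffer. ADP was quantified by HTRF Transcreener TR-FRET.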
Numbers without * were called inactive; ? = inconclusive; / = no result given. Hits are enriched below; roughly 2.9% of the tested compounds scored in any of these assays. Unless noted, calls follow the shape of the full dose curve.

By UniProt entry, the sequences of proteins in these tests, tags left out.
D(3) dopamine receptor (Homo sapiens), P35462, UniProt P35462, whole entry, looked up: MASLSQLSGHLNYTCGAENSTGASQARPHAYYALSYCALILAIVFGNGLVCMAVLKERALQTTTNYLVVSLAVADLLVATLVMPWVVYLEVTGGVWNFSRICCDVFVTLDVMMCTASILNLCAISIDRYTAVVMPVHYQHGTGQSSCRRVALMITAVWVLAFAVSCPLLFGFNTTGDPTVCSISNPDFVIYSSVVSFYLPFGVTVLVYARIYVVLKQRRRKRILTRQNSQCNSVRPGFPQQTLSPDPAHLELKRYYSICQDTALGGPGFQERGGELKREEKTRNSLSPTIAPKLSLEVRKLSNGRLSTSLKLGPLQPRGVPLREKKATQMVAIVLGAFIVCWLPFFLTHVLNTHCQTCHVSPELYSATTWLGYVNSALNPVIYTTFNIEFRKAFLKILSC
Importin subunit beta-1 (Homo sapiens), Q14974, UniProt Q14974, whole entry, looked up: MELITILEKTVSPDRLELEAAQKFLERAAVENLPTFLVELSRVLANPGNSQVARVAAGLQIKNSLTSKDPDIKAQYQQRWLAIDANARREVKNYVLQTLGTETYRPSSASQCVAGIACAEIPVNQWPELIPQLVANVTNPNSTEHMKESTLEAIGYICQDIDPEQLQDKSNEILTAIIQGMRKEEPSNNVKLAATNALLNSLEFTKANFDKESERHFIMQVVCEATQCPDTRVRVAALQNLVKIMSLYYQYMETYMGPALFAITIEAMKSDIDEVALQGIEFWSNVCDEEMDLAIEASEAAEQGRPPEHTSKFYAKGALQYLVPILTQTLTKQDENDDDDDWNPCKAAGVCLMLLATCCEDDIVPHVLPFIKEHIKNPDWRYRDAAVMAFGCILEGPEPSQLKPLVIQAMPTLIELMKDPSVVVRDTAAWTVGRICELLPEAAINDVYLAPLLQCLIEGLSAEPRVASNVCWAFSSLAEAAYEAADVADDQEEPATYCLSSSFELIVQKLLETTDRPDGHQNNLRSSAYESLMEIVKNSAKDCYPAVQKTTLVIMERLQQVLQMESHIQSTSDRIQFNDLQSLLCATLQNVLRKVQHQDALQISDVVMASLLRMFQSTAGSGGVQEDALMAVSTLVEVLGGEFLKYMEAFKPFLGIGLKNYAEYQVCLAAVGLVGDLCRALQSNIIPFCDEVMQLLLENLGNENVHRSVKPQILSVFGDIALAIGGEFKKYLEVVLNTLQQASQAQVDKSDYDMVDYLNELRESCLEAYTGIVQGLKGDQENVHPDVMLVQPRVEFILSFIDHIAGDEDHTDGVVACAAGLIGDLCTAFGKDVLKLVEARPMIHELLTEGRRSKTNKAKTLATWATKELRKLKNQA

SMILES	D3 antag	DRD3 agonist	PTAP TSG101 blk	Rango release inh	Rango complex inh	MmCpn inh
O=C(CC1C(=O)NCCN1Cc1ccccc1C(F)(F)F)NC1CCCCCC1 (stereo not given)	-19.0	-2.8	-7.0%	24.2%	?	-5.2%
COC(=O)c1cc(NS(=O)(=O)c2ccc3c(c2)CCC(=O)N3)cc(C(=O)OC)c1	31.3	32.5*	-10.2%	9.3%	1.8%	0.9%
CC(=O)c1ccc(NS(=O)(=O)c2ccc3c(c2)CCC(=O)N3)cc1	0.0	-2.0	-0.6%	9.7%	-1.1%	-0.2%
Cc1ccc(CN2CC[C@H]3C=CCc4cccc(c43)C2)cc1	-122.6*	-70.8	/	5.4%	3.2%	1.4%
C1=C[C@@H]2CCN(Cc3ccccc3)Cc3cccc(c32)C1	?	-49.8	-0.8%	8.5%	0.8%	-0.6%
COc1ccc(CN2CC[C@H]3C=CCc4cccc(c43)C2)cc1	-102.5*	-34.3	-6.6%	-16.6%	-2.7%	-0.5%
Cn1c(=O)oc2cc(S(=O)(=O)NCCC(=O)Nc3ccc(F)c(Cl)c3)ccc21	/	6.0	/	/	/	/
COC(=O)C(=O)/C=C(\O)c1c(C)cc(C)cc1C	5.1	3.5	-4.0%	6.8%	65.1µM*	-0.6%
CC(=O)SCC(CC(=O)c1ccc(C)cc1)C(=O)O (stereo not given)	/	11.5	/	/	/	/
CCN(c1cccc(C)c1)S(=O)(=O)c1nnc(NC(=O)c2ccccc2Cl)s1	/	-16.3	/	/	/	/
O=C(Nc1nnc(CC2=CCCCC2)s1)Nc1ccccc1F	5.3	3.9	1.5%	-23.0%	2.4%	-0.8%
O=C(Nc1cccc(Cl)c1)Nc1nnc(CC2=CCCCC2)s1	13.7	33.4*	-5.0%	-6.2%	2.5%	0.0%
COc1ccc(OC)c(S(=O)(=O)N2CCN(c3ccccc3)CC2)c1	3.5	5.0	-2.6%	-8.4%	?	0.2%
COc1ccc(OC)c(S(=O)(=O)ON2C(=O)c3ccccc3C2=O)c1	-96.8*	-19.7	-2.1%	1.0%	-3.5%	-4.0%
CCOC(=O)c1ccc(-c2ccc(/C=N/NC(=O)CN(c3ccccc3Cl)S(C)(=O)=O)o2)cc1	52.5	44.0*	-1.5%	-10.7%	0.0%	3.3%
COC(=O)C1=C(Cn2cnc3ccccc32)NC(=O)NC1c1cc(C)ccc1C (stereo not given)	59.1	39.6*	-5.1%	15.2%	5.0%	-1.6%
CCOC(=O)C1=C(CSc2nccn2C)NC(=O)NC1c1cc(C)ccc1C (stereo not given)	-3.0	-9.5	-0.2%	-8.0%	1.5%	-2.9%
CCOC(=O)C1=C(Cn2cnc3ccccc32)NC(=O)NC1c1cc(C)ccc1C (stereo not given)	18.8	34.1*	-1.9%	-1.5%	2.9%	0.0%
CCN1CCCC1CN(Cc1cc2ccc(C)cc2[nH]c1=O)C(=S)Nc1ccccc1OC (stereo not given)	?	-3.6	-6.7%	-12.8%	-2.4%	0.0%
CCN1CCCC1CN(Cc1cc2ccc(C)cc2[nH]c1=O)C(=S)Nc1ccccc1C(=O)OC (stereo not given)	-64.8*	-11.2	-4.5%	11.4%	3.1%	2.1%
CCN1CCCC1CN(Cc1cc2ccc(C)cc2[nH]c1=O)C(=S)Nc1cccc(OC)c1 (stereo not given)	-88.2*	-14.3	-3.7%	?	-4.7%	-1.9%
CCN1CCCC1CN(Cc1cc2ccc(C)cc2[nH]c1=O)C(=S)Nc1ccc(OC)cc1 (stereo not given)	-63.9*	-8.4	-4.8%	0.6%	-2.9%	0.7%
CCN1CCCC1CN(Cc1cc2ccc(C)cc2[nH]c1=O)C(=S)Nc1ccc(F)cc1 (stereo not given)	-82.4*	-24.5	1.2%	1.0%	-0.2%	-1.0%
CCCc1c2c(cc3c(=O)cc(C(=O)OCC)oc13)CCCC2	19.2	5.8	-0.5%	8.0%	-0.1%	0.9%

Filtered by structure, the compounds so far containing an NH in an aromatic ring (five)
SMILES	D3 antag	DRD3 agonist	PTAP TSG101 blk	Rango release inh	Rango complex inh	MmCpn inh
CCN1CCCC1CN(Cc1cc2ccc(C)cc2[nH]c1=O)C(=S)Nc1ccccc1OC (stereo not given)	?	-3.6	-6.7%	-12.8%	-2.4%	0.0%
CCN1CCCC1CN(Cc1cc2ccc(C)cc2[nH]c1=O)C(=S)Nc1ccccc1C(=O)OC (stereo not given)	-64.8*	-11.2	-4.5%	11.4%	3.1%	2.1%
CCN1CCCC1CN(Cc1cc2ccc(C)cc2[nH]c1=O)C(=S)Nc1cccc(OC)c1 (stereo not given)	-88.2*	-14.3	-3.7%	?	-4.7%	-1.9%
CCN1CCCC1CN(Cc1cc2ccc(C)cc2[nH]c1=O)C(=S)Nc1ccc(OC)cc1 (stereo not given)	-63.9*	-8.4	-4.8%	0.6%	-2.9%	0.7%
CCN1CCCC1CN(Cc1cc2ccc(C)cc2[nH]c1=O)C(=S)Nc1ccc(F)cc1 (stereo not given)	-82.4*	-24.5	1.2%	1.0%	-0.2%	-1.0%

Additional entries:
SMILES	D3 antag	DRD3 agonist	PTAP TSG101 blk	Rango release inh	Rango complex inh	MmCpn inh
COc1ccccc1N(C(=O)CCl)c1cn(C(C)=O)c2ccccc12	-29.4	-4.4	-10.5%	2.6%	-1.0%	0.3%
CC(=O)n1cc(N(C(=O)CCl)c2ccc(Cl)cc2)c2ccccc21	-57.9*	-9.3	-3.5%	-1.9%	-0.4%	3.3%
CC1=CN(S(=O)(=O)c2ccc(C)cc2)C[C@@H]2[C@H]3CC[C@H](C3)[C@H]12	-65.0*	-54.1	-5.5%	9.6%	2.6%	-2.0%
CCc1cccc(CC)c1NC(=O)C1CCC(CNS(=O)(=O)c2cccc3nsnc23)CC1 (stereo not given)	/	4.2	/	/	/	/
CC1CCCN(CCC(=O)Nc2ccc(F)c(F)c2)C1 (stereo not given)	?	-7.3	-2.5%	-8.8%	-1.7%	3.2%
CCOC(=O)C1CCN(CCC(=O)Nc2ccc(OC)cc2)CC1	/	-12.7	/	/	/	/
COc1ccc(NC(=O)CN(C)CC(=O)N2CCCCCC2)cc1	-64.8*	1.3	-9.6%	-0.3%	-1.0%	1.1%
COc1ccc(NC(=O)CCN2CCCC(C)C2)cc1 (stereo not given)	-74.5*	0.0	-2.6%	-6.1%	0.2%	-0.7%
COc1ccc(NC(=O)CCN2CCC(C)CC2)cc1	-75.6*	-6.3	-2.6%	-5.4%	-0.2%	-27.1%
CCC1C(=O)CC(c2ccc([N+](=O)[O-])cc2)NC1c1ccc([N+](=O)[O-])cc1 (stereo not given)	-25.0	-20.9	-2.3%	1.3%	-0.5%	-1.5%
COc1ccc(NC(=O)CC2C(=O)N(c3ccccc3)C(=O)N2Cc2cccnc2)cc1 (stereo not given)	/	0.4	/	/	/	/
O=C1C2C3C=CC(C3)C2C(=O)N1c1n[nH]c(-c2ccccc2)n1 (stereo not given)	-3.8	33.8*	-3.3%	-7.3%	-0.9%	3.0%
O=C1C2C3C=CC(C3)C2C(=O)N1c1n[nH]c(-c2cccnc2)n1 (stereo not given)	-15.8	1.4	0.4%	-9.8%	3.0%	0.8%
CCCCCCCCCCCCCCCCCCOP(=O)([O-])OC1CC[N+](C)(C)CC1	/	4.5	/	/	/	/
C[C@H]1C[C@H]2[C@@H]3CCC4=CC(=O)C=C[C@]4(C)[C@@]3(F)[C@@H](O)C[C@]2(C)[C@@]1(O)C(=O)CCl	/	-16.7	/	/	/	/
